The numbers were not newly measured in patent US8394377B2, “Methods for treating cancer using combination therapy” (The Regents of the University of Colorado, priority 2008, dated 2013), which cites them from elsewhere.

Series [1] deals with metastatic, HER-2-overexpressing breast cancers. The settings on record: combined with cytotoxic chemotherapeutics; cited from earlier work.
Series [2] relates to tumor cell lines. The settings on record: tumor cell lines in the presence of human peripheral-blood mononuclear cells; cited from earlier work.

In the case of “HERCEPTIN: recombinant DNA-derived humanized monoclonal antibody that selectively binds to the extracellular domain of the HER-2 proto-oncogene”, the survival result in series [1] was “improve survival”. For the same substance, in series [2], the antibody-dependent cellular cytotoxicity entry is “can induce antibody-dependent cellular cytotoxicity”.
